Patent US9452154B2, “Methods for treating HCV” (Gilead Sciences, Inc., priority 2010, dated 2016)

What was measured:
GT-1b Huh-lunet cells = test: Biological Example 4: antiviral combination studies with Compound 5 (MacSynergy II); assay type: cell-based, HCV; conditions: in combination with Compound 5, 1b replicon cells
[1] = system: Genotype 1b replicon cells; test: Biological Example 6: compound combination replicon cure assay; conditions: 6 days; Compound 6 at 4 pM, Compound 4 at 1000 nM, Compound 1 at 10 nM, Compound 3 at 26.25 nM
[2] = system: HCV genotype 1a replicon cells (Huh7-lunet); test: Biological Example 7: compound combination HCV viral load drop assay / replicon cure

**Q.** Which Interaction (GT-1b Huh-lunet cells) does the source give for `Fc1ccccc1-c1nc2ccn(Cc3ccc(-c4ccc(C(F)(F)F)cc4C(F)(F)F)nn3)cc-2n1` [Compound 1, 5-((6-(2,4-bis(trifluoromethyl)phenyl)pyridazin-3-yl)methyl)-2-(2-fluorophenyl)-5H-imidazo[4,5-c]pyridine] here?
**A.** The Interaction was “Moderate synergy (Moderate synergy if volumes are >50 and ≦100 nM^2)”.

**Q.** How did the “Replicon RNA log drop” value [1] turn out when `CC[C@@H]1C[C@]1(NC(=O)[C@@H]1C[C@@H](Oc2cc(-c3csc(NC(C)C)n3)nc3c(Cl)c(OCCN4CCOCC4)ccc23)CC1C(=O)[C@@H](NC(=O)O[C@@H]1C[C@@H]2C[C@@H]2C1)C(C)(C)C)C(=O)O` (stereo partly shown) [Compound 3] was run?
**A.** Its value is −0.9 log.

**Q.** Which results are given for `CC1=CC[C@H](C(=O)N(c2cc(C#CC(C)(C)C)sc2C(=O)O)[C@H]2CC[C@](O)(CO[C@H]3CCOC3)CC2)CC1` [Compound 5, 5-(3,3-dimethylbut-1-yn-1-yl)-3-[(cis-4-hydroxy-4-{[(3S)-tetrahydrofuran-3-yloxy]methyl}cyclohexyl){[(1R)-4-methylcyclohex-3-en-1-yl]carbonyl}amino]thiophene-2-carboxylic acid]?
**A.** Maximum Replicon RNA log10 drop ([2]; 10 EC50): −2.80 log10; Uncured Colony Number ([2]; 10 EC50): 1581; Maximum Replicon RNA log10 drop ([2]; 100 EC50): −4.08 log10; Uncured Colony Number ([2]; 100 EC50): 534

**Q.** Which Interaction (GT-1b Huh-lunet cells) does the source give for `COC(=O)N[C@H](C(=O)N1CC2(CC2)C[C@H]1c1ncc(-c2ccc3c(c2)C(F)(F)c2cc(-c4ccc5nc([C@@H]6[C@H]7CC[C@H](C7)N6C(=O)[C@@H](NC(=O)OC)C(C)C)[nH]c5c4)ccc2-3)[nH]1)C(C)C` [Compound 6, (1-{3-[6-(9,9-Difluoro-7-{2-[5-(2-methoxycarbonylamino-3-methyl-butyryl)-5-aza-spiro[2.4]hept-6-yl]-3H-imidazol-4-yl}-9H-fluoren-2-yl)-1H-benzoimidazol-2-yl]-2-aza-bicyclo[2.2.1]heptane-2-carbonyl}-2-methyl-propyl)-carbamic acid methyl ester] here?
**A.** The Interaction was “Minor synergy (Minor synergy if volumes are >25 and <50 nM^2)”.
